Test results taken from patent US12226418B2, “Dosing regimen for the treatment of PI3K related disorders” (Incyte Corporation, priority 2018, dated 2025).

Amino acid sequences for entries named in this document (tags omitted). Residues count along the entry.
UniProt P23458, 837-1142: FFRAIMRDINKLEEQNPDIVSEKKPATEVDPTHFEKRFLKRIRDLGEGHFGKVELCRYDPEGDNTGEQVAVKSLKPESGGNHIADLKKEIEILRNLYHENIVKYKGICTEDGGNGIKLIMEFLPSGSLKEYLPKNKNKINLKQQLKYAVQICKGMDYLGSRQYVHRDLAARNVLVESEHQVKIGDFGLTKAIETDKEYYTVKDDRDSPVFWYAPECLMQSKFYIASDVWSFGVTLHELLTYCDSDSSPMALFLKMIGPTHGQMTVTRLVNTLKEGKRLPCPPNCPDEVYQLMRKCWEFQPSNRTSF

Molecular target: JAK1 (Homo sapiens (Human), UniProt P23458)
Test: JAK1 IC50, Assay A of U.S. Ser. No. 14/680,659 at 1 mM ATP
Assay type: biochemical

- IC50: < 10 nM
SMILES: CN(C)Cc1cc(F)cc(OC2CCN(CC(CC#N)n3cc(-c4ncnc5[nH]ccc45)cn3)CC2)c1 (stereo not shown) [Example 14, 4-(4-{3-[(dimethylamino)methyl]-5-fluorophenoxy}piperidin-1-yl)-3-[4-(7H-pyrrolo[2,3-d]pyrimidin-4-yl)-1H-pyrazol-1-yl]butanenitrile]
